Laboratory results as given in patent US20250188058A1, “NEW FORMS OF N-(5-((6,7-DIMETHOXYQUINOLIN-4-YL)OXY)PYRIDIN-2-YL)-1-PROPYL-4-(2,2,2-TRIFLUOROETHOXY)-1H-PYRAZOLE-3-CARBOXAMIDE HYDROCHLORIDE” (QURIENT CO., LTD., priority 2022, published 2025).

Assay: Aqueous solubility of crystalline salts of Q702 (slurried overnight in deionised water, HPLC)
Settings: crystalline salts slurried overnight in deionised water (pH = 6.8), solution pH measured

SMILES: CCCn1cc(OCC(F)(F)F)c(C(=O)Nc2ccc(Oc3ccnc4cc(OC)c(OC)cc34)cn2)n1.O=S(=O)(O)c1ccc2ccccc2c1 [Napsylate]
- pH of solution: 3.58
